According to PubChem BioAssay (Tox21):
“And” between values parts separate entries of the source, which are not always exact repeats. Identical values can stand only once. The entries are a selection whose mix differs from that of the whole data set. Results filed as inconclusive are left out. The source made the active and inactive calls. Unless noted, calls follow the shape of the dose curve; as a rule, active = well fitted curve in the direction sought with a large enough effect in the repeat runs; inconclusive = weak or mixed curves; inactive = no such curve, though single readings can be large; an effect the other way counts as inactive or inconclusive.

Amino acid sequences for entries named in this document (tags omitted). A change or cut given only in a name is not applied to a line headed by its entry.
UniProt Q92731, whole entry, looked up: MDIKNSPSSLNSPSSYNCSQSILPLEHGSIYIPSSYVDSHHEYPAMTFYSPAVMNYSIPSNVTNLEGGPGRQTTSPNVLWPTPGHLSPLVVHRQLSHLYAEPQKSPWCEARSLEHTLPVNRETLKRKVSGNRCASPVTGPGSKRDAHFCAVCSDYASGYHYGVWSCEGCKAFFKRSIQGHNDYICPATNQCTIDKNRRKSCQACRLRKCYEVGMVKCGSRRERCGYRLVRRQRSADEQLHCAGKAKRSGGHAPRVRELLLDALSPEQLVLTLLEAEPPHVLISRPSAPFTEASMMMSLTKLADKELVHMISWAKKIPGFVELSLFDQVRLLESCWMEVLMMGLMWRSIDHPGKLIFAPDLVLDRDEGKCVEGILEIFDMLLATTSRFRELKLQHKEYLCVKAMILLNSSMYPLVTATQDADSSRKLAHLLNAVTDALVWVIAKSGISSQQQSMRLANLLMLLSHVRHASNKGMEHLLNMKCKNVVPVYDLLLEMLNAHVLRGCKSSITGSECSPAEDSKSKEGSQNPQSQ
UniProt P10275: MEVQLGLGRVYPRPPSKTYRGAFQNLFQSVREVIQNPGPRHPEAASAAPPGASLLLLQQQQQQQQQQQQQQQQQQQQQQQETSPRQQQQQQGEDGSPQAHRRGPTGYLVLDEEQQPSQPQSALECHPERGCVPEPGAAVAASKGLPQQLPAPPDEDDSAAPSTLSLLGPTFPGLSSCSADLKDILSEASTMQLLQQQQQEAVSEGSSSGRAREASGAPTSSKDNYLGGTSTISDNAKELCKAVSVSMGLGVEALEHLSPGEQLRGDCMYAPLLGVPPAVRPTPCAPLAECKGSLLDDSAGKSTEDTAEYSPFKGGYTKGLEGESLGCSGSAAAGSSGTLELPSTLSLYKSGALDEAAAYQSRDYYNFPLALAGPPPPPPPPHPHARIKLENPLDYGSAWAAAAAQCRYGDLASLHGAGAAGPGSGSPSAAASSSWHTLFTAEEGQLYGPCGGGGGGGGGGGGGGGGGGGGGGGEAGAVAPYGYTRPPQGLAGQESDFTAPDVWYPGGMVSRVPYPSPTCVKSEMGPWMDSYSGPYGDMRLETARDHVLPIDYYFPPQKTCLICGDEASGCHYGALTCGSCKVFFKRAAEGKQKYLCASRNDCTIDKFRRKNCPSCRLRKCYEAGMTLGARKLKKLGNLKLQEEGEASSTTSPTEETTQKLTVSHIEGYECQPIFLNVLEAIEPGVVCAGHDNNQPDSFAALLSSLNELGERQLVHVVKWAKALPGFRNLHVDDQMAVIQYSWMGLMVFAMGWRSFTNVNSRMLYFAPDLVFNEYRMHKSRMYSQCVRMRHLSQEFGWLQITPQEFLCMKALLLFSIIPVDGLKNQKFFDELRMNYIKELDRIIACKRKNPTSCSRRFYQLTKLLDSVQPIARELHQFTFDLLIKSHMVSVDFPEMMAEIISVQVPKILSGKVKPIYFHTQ
UniProt P03372, whole entry, looked up: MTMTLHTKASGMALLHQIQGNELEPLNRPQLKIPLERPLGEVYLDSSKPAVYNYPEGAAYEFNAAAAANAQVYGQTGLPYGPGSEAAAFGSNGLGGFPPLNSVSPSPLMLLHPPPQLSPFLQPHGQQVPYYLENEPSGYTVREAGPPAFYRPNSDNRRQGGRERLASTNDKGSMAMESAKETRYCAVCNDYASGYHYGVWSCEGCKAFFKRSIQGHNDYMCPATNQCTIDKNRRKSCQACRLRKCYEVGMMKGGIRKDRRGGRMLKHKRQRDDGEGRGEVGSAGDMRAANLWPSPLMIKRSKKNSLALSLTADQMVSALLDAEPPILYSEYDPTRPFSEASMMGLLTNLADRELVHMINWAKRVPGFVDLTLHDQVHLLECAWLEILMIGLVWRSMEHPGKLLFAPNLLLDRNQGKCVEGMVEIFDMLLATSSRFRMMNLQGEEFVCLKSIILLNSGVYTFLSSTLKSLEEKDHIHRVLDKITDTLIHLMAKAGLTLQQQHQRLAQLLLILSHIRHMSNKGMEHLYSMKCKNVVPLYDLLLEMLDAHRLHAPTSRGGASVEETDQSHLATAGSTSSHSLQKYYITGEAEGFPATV

Assays:
[1] = A CellTox Green Cytotoxicity Assay to monitor cytotoxicity in HEK293 cells - 0 hour (AID 1224869); conditions: CellTox Green fluorescence; at 76.8 µM (top of the series) unless noted; also: nearly all actives have a fitted effect of over 50% in size
Method in brief: (§1)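 Cells (HEK293, 600/well) and dye reagent are dispensed together. After 5 h at 37 C, 23 nL compound is pinned in. Plates stay at 37 C for 40 h with fluorescence read at 0h, 8h, 16h, 24h, 32h and 40h.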

[2] = qHTS assay to identify small molecule agonists of the sonic hedgehog signaling (Shh) pathway - cell viability counter screen (AID 1259366); also: nearly all actives have a fitted effect of over 50% in size; also: potency is read from the fitted curve at half-maximal effect
Method in brief: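 Stable Gli1-Luc NIH/3T3 clone, 2,000 cells/well. Compound exposure 24hr at 37C. Read-out: CellTiter-Fluor fluorescence.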

[3] = qHTS assay to identify small molecule agonists of the sonic hedgehog signaling (Shh) pathway (AID 1259368; calls by dose curve;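 also: NIH/3T3-derived 3T3Gli1-Luc cells carrying a stable Gli1-driven firefly luciferase reporter; nearly all actives have a fitted effect of over 15% in size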); conditions: NIH/3T3 Gli1-Luc reporter, luciferase, 24 h, hits give high values; at 92.4 µM (top of the series) unless noted
Method in brief: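 Cells of a mouse NIH/3T3 clone stably expressing luciferase under the Gli1 transcriptional response element are exposed to test chemicals for 24 hr at 37 C. Pathway activation is detected as a rise in luminescence.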

[4] = target: Estrogen receptor beta (Homo sapiens) (UniProt Q92731); experiment: qHTS assay to identify small molecule agonists of the estrogen receptor beta (ER-beta) signaling pathway (AID 1259377; active = well fitted activation curve with a large enough effect in the signal ratio in the repeat runs, not every such curve was filed as active; the % refers to the signal ratio); conditions: ER-beta-UAS-bla HEK293T, beta-lactamase FRET ratio, 16 h; at 92.4 µM (top of the series) unless noted
[5] = qHTS assay to identify small molecule antagonists of the estrogen related receptor (ERR) signaling pathway from Tox21 library (AID 1224848); also: nearly all actives have a fitted effect of over 50% in size; also: potency is read from the fitted curve at half-maximal effect
Method in brief: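 ERR cell line, 2,000 cells/well. 6 h settle, then compound (DMSO) added; 18 h at 37 C; ONE-Glo luminescence after 30 min RT.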

[6] = qHTS RealTime-Glo MT Cell Viability Assay in HepG2 cells - 40 hour (AID 1224870); also: nearly all actives have a fitted effect of over 50% in size
Method in brief: (§2)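 Real-time viability: cells seeded at 600 per well together with NanoLuc and cell-permeant prosubstrate, compounds added after 5 h incubation. Luminescence tracked at 0, 8, 16, 24, 32 and 40 h of exposure.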

[7] = A CellTox Green Cytotoxicity Assay to monitor cytotoxicity in HEK293 cells - 40 hour (AID 1224871); also: nearly all actives have a fitted effect of over 45% in size
Method in brief: as §1

[8] = qHTS RealTime-Glo MT Cell Viability Assay in HEK293 cells - 16 hour (AID 1224872)
Method in brief: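 Cells + reagent dispensed (600 cells/well, HEK293) → 5 h at 37 C/5% CO2 → 23 nL compound in DMSO pinned → 40 h at 37 C → luminescence read at 0, 8, 16, 24, 32, 40 h.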

[9] = qHTS RealTime-Glo MT Cell Viability Assay in HepG2 cells - 8 hour (AID 1224873); also: nearly all actives have a fitted effect of over 55% in size
Method in brief: as §2

[10] = qHTS RealTime-Glo MT Cell Viability Assay in HEK293 cells - 40 hour (AID 1224874); conditions: RealTime-Glo luminescence; max response: hits give low values; also: nearly all actives have a fitted effect of over 50% in size; also: potency is read from the fitted curve at half-maximal effect
Method in brief: (§3)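 Real-time viability in HEK293: signal arises when living cells convert a prosubstrate for NanoLuc in the medium, so luminescence tracks viable cell number. Compound (23 nL, DMSO) added 5 h post-seeding; kinetic reads at 0–40 h, 37 C.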

[11] = A CellTox Green Cytotoxicity Assay to monitor cytotoxicity in HEK293 cells - 32 hour (AID 1224881); also: nearly all actives have a fitted effect of over 40% in size
Method in brief: as §1

[12] = qHTS RealTime-Glo MT Cell Viability Assay in HEK293 cells - 8 hour (AID 1224887)
Method in brief: as §3

[13] = A CellTox Green Cytotoxicity Assay to monitor cytotoxicity in HEK293 cells - 16 hour (AID 1224888); also: nearly all actives have a fitted effect of over 35% in size
Method in brief: as §1

[14] = A CellTox Green Cytotoxicity Assay to monitor cytotoxicity in HepG2 cells - 8 hour (AID 1224890); also: nearly all actives have a fitted effect of over 45% in size
Method in brief: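 Cells and non-lytic dye reagent are dispensed together (600 HepG2 cells/well) and incubated 5 h before DMSO compound transfer. Kinetic fluorescence is then recorded in the same wells during 40 h at 37 C.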

[15] = qHTS assay to identify small molecule antagonists of the estrogen receptor alpha (ER-alpha) signaling pathway using the BG1 cell line in the presence of 0.1 nM 17-beta-estradiol - cell viability counter screen (AID 1259241); also: nearly all actives have a fitted effect of over 40% in size
Method in brief: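 Viability in VM7Luc4E2 cells after 22 hr compound exposure under 0.1 nM 17beta-estradiol stimulation, by CellTiter-Fluor.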

[16] = target: Androgen receptor (Homo sapiens) (UniProt P10275); experiment: qHTS assay to identify small molecule antagonists of the androgen receptor (AR) signaling pathway using the MDA cell line in the presence of 0.5 nM R1881 (AID 1259243); also: nearly all actives have a fitted effect of over 50% in size
[17] = qHTS assay to identify small molecule antagonists of the sonic hedgehog signaling (Shh) pathway - cell viability counter screen (AID 1259367); also: nearly all actives have a fitted effect of over 55% in size
Method in brief: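 CellTiter-Fluor signal in conditioned medium-stimulated 3T3 Gli1-Luc cells, 23 hr compound exposure, 37C.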

[18] = qHTS assay to identify small molecule agonists of the androgen receptor (AR) signaling pathway in the presence of an antagonist - cell viability counter screen (AID 1259379);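 also: MDA-kb2 human breast cancer cells carrying an MMTV luciferase reporter; nearly all actives have a fitted effect of over 25% in size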
Method in brief: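 Cytotoxicity is assessed by CellTiter-Fluor in MDA-kb2 cells carrying an MMTV-driven luciferase reporter. Cells receive 3.0uM nilutamide plus compounds at 15 concentrations and incubate 16 hr at 37C without CO2 before fluorescence reading.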

[19] = target: Estrogen receptor (Homo sapiens) (UniProt P03372); experiment: qHTS assay to identify small molecule antagonists of the estrogen receptor alpha (ER-alpha) signaling pathway using the BG1 cell line in the presence of 0.1 nM 17-beta-estradiol (AID 1259244); conditions: VM7Luc4E2 (BG1) ERE-luciferase, antagonist mode, 0.1 nM E2, 22 h; at 92.4 µM (top of the series) unless noted; also: nearly all actives have a fitted effect of over 50% in size
[20] = qHTS assay to identify small molecule antagonists of the sonic hedgehog signaling (Shh) pathway (AID 1259369; calls by dose curve; also: nearly all actives have a fitted effect of over 45% in size)
Method in brief: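 Cells are plated and held 4hr at 37 C, compounds (DMSO) are pinned in, conditioned medium is added to stimulate the pathway, and after 24hr luciferase reagent is added for 30min before luminescence is read.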
% is scaled to controls: 0 for no effect and ±100 for the full control effect.

N#CSc1ccc([N+](=O)[O-])cc1[N+](=O)[O-]
inactive: cytotoxicity [1] 0.604% | activity change [3] -12.2% | activation [4] -12.3%
active: Potency [2] 7.7 µM

O=C(Cl)OCCOC(=O)Cl
inactive: Potency [5] | cytotoxicity [1] -0.409% | Potency [6] | Potency [7] | Potency [8] | Potency [9] | max response [10] -20.1% | Potency [11] | Potency [12] | Potency [13] | Potency [14] | Potency [15] | Potency [16] | Potency [2] | Potency [17] | activity change [3] -0.375% | Potency [18]

O=[p+]1oc2ccccc2c2ccccc21 (configuration not stated)
inactive: Potency [5] | cytotoxicity [1] 6.92% | Potency [6] | Potency [7] | Potency [8] | Potency [9] | max response [10] -0.543% | Potency [11] | Potency [12] | Potency [13] | Potency [14] | Potency [15] | activity change, negative = inhibition [19] 6.36% | Potency [2] | Potency [17] | activity change [3] -1.08% | activation [4] -1.6% | Potency [18]

CC(C)OP(=S)(OC(C)C)SCCNS(=O)(=O)c1ccccc1
inactive: cytotoxicity [1] 0.0649% | Potency [6] | Potency [7] | Potency [9] | Potency [11] | Potency [13] | Potency [14] | Potency [2] | Potency [17] | activity change [3] -3.37% | activation [4] -4.32% | Potency [18]

Cc1cc([N+](=O)[O-])cc([N+](=O)[O-])c1O
active: Potency [5] 15.4 µM and 13.7 µM
inactive: cytotoxicity [1] 0.481% and -9.37% | Potency [7] | Potency [9] | Potency [11] | Potency [12] | Potency [14] | activity change [3] -6.17% and -5.45%

O=[P+](Oc1ccccc1)Oc1ccccc1
inactive: cytotoxicity [1] 4.42% | Potency [6] | Potency [7] | Potency [8] | Potency [9] | max response [10] 10.7% | Potency [11] | Potency [12] | Potency [13] | Potency [14] | Potency [15] | Potency [16] | activity change, negative = inhibition [19] 5.13% | Potency [2] | Potency [17] | activity change [3] -0.872% | Potency [20] | Potency [18]

CN(N=O)C(=N)N[N+](=O)[O-]
inactive: Potency [5] | cytotoxicity [1] 3.15% | Potency [6] | Potency [7] | Potency [8] | Potency [9] | Potency [11] | Potency [12] | Potency [13] | Potency [14] | Potency [15] | Potency [2] | Potency [17] | activity change [3] 3.07% | activation [4] -0.825% | Potency [18]
active: Potency [10] 34.4 µM

O=P(Cl)(Cl)c1ccccc1
inactive: Potency [5] | cytotoxicity [1] -3.16% | Potency [6] | Potency [7] | Potency [8] | Potency [9] | max response [10] 1.05% | Potency [11] | Potency [12] | Potency [13] | Potency [14] | Potency [15] | activity change, negative = inhibition [19] 6.67% | Potency [2] | Potency [17] | activity change [3] 0.306% | Potency [20] | Potency [18]
